# Antibody variant affinities, Ab-14 light chain, assay B

Target peptide (SARS-CoV-2 spike, HR2 region): PDVDLGDISGINAS

The variants keep the heavy chain, the linker and the frameworks of Ab-14 (scFv order VH, three GGGGS repeats, VL).
VH: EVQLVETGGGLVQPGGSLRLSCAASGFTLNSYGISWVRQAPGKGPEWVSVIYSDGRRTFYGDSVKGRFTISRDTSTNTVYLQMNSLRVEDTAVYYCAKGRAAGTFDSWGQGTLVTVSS
VL: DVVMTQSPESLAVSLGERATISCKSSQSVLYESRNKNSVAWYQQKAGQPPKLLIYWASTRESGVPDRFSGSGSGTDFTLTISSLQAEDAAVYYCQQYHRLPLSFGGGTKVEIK

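Phage display of a naive human antibody library on the peptide gave the parent. The variants were designed computationally from a first round of random CDR variants and then made and measured. Several design methods are mixed in this list. The assay is AlphaSeq: two haploid yeast populations carry antibody and antigen on their surface. The frequency of each diploid, read from paired DNA barcodes, reflects how well the two displayed proteins bind. Scores were corrected for input abundance and mapped to Kd with protein pairs of known affinity run in the same pool. There are six technical replicates.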

The parent's light chain CDRs are KSSQSVLYESRNKNSVA, WASTRES, QQYHRLPLS; each variant's own CDRs replace them letter for letter.
The Kd shown is the geometric mean over detected replicates; a lower Kd is a better binder.
"nd" means that the variant was in the library but no mating with the target was seen in any replicate; the authors take this as a sign of poor binding, and no number exists.
The range of this assay differs from that of the first round, and the authors advise against merging the two.
In the paper, a design with two or fewer of six values counts as a poor binder.
Background: pairings of all light chain designs with three empty control strains gave a value in 4% of cases (median 430 nM, 5th percentile 38 nM). Values in that range, when seen in few replicates, are hard to tell from nonspecific mating. For each scFv, signals with the empty controls are counted beside the result.

CDR-L1	CDR-L2	CDR-L3	apparent Kd	replicates with signal	empty controls
SLAESAHLESRNKNSVA	DNTTRES	QHYDRLPLS	nd	0 of 6	1 of 18
KSSQSVLYESRNKNSVA	WSSTRES	QQYHRLPLS	280 nM	1 of 6	0 of 18
HVSSMDMEDGGIKHSVA	DMKITER	QQYMRLPLS	1.7 nM	6 of 6	0 of 18
KSSISYLYESMNKNSVA	KGSTRES	QQYHRLPLS	2.5 nM	6 of 6	1 of 18
RLTQQMYGFNIHANAIA	SGKERYW	QQYARLPLS	120 nM	3 of 6	0 of 18
KLVQQHLYESRNKNSVA	EASTREQ	QQYHRLPLS	2.2 nM	6 of 6	0 of 18
KQPQSVLYESRNKNSVA	DASTRES	QQYHRLPLS	1.0 nM	6 of 6	4 of 18
KLMLSLGESKQSERNVA	NMRVSVA	QQYDHLPLT	nd	0 of 6	1 of 18
AMREDFYHGQVEMSAIA	DGEHLNM	QQYSHLPLS	3.4 nM	6 of 6	0 of 18
KSSQSFLQESRNKNSVA	WASTREE	FQVHRLPLS	nd	0 of 6	0 of 18
KLDPSHLGESRNKNAVA	QASTREE	QQYHRLPLS	880 pM	6 of 6	2 of 18
KSSQSVLYESLNENSVA	QASTRES	QQYDRLPLS	59 nM	6 of 6	0 of 18
TIGQTLMAGIRNRSNVA	EVSQRLN	QQYDRLPLA	34 nM	6 of 6	1 of 18
ILDQSHLYESRNKNSVA	NANTREE	QQYHRLPLS	380 pM	6 of 6	2 of 18
KMQTLEYTANIGENSVA	DANVHVD	QQYFRLPLS	3.9 nM	6 of 6	1 of 18
KSSQSLLYESRNKNSVA	AASQRES	QQYHRLPLS	950 pM	6 of 6	0 of 18
KLTHLSFVHDRQKNNVA	DLERKAA	QQYNRLPLT	2.8 nM	6 of 6	0 of 18
KLSQSMLYEERNKNSVA	HASQRMS	QQYHRLPLS	1.1 nM	6 of 6	1 of 18
TVSQVHEMLSHNKNSVA	DMNTREQ	QQYDRLPLS	26 nM	5 of 6	0 of 18
KLDQSVLYESRNKNSVA	GASTRCS	QQYHRLPLS	680 pM	6 of 6	0 of 18
KSSQSVIYESRNKQSVA	WASTRES	QQYHRLELS	nd	0 of 6	0 of 18
KSSQSVLFESRNKNSVA	AASTRIS	QQYHCLPLS	37 nM	2 of 6	0 of 18
KDSWSVLYESKNKNSVA	WASTRES	QQYHRLPLP	110 nM	1 of 6	0 of 18
KLLQEVTGHARNRNSVA	HNSTRED	QQYDRLPLS	46 nM	1 of 6	2 of 18
KLEMSQLYESRNKNSVA	NASTRES	QQYHRLPLS	1.3 nM	6 of 6	1 of 18
KISQMVWYESTWWNAIA	QTSTREE	QQYHRLPLS	nd	0 of 6	0 of 18
KSSPSTLYESRNKNSVA	DASTRES	QQYMRLPLS	520 pM	6 of 6	0 of 18

The remaining entries, values ahead:

apparent Kd	replicates with signal	empty controls	CDR-L1	CDR-L2	CDR-L3
8.8 nM	6 of 6	1 of 18	TLGSNMMVESVHKNNVA	ELSTRLN	QQYVRLPLS
5.2 nM	6 of 6	1 of 18	KISQMARVGSTKQNSIA	EEATRCD	QQYHRLPLF
4.6 nM	6 of 6	0 of 18	ILSQSVLMGMHLKNSVA	QASTRFE	QQYHRLPLM
nd	0 of 6	0 of 18	KSSQSVFYESRNKNSVH	WASTRES	QQYHRLPLL
1.5 nM	6 of 6	1 of 18	QMYPFEVAKGEGRNNVA	HVSTRAL	QQYFRLPLV
9.5 nM	6 of 6	0 of 18	KLSGLMSSSKFAKDNVA	ENNTREK	QQYERLPLS
1.2 nM	6 of 6	0 of 18	KSSQSVQVQSRNKNSVA	DASTRES	QQYHRLPLS
16 nM	6 of 6	1 of 18	HVMHEQLDYKNRENNIA	HESMRLV	QQYSQLPIT
170 nM	2 of 6	2 of 18	KLSQSVLYESRNKNSVA	WCSTRES	QQYHRLPLS
930 pM	6 of 6	1 of 18	KLMQEMWYESRNKNSVA	HASEREQ	QQYHRLPLQ
210 nM	4 of 6	1 of 18	QSSQSVWYEARNKNSVA	WASTRES	QQYHRLPLS
4.0 nM	6 of 6	2 of 18	SLQQSVLYESRNKNSVA	HASLRED	QQYHRLPLS
2.5 nM	6 of 6	1 of 18	TISMLMNHMTRNSNNVA	NMDMREA	QQYDRLPLS
89 nM	5 of 6	1 of 18	MISQLFNMGQFAINSVA	QASTRCE	QQYDRLPLM
2.2 nM	6 of 6	3 of 18	KLSQGWLYESRECNQVA	NASQREE	QQYHRLPLS
2.9 nM	6 of 6	4 of 18	KWEWSQLYESRNKNSVA	NASLRMS	QQYHRLPLS
950 pM	6 of 6	0 of 18	KVSQKNLYESRMKNSVA	NASLRES	QQYHRLPLS
37 nM	6 of 6	0 of 18	HVSESVFMQSKMRNSVA	ENSTRES	QQYDRLPLS
580 pM	6 of 6	2 of 18	KLEQSQLYESRNKNSVA	QASTRES	QQYHRLPLS
1.7 nM	6 of 6	0 of 18	KVSQSEPYESRNKNSVA	NASYRMS	QQYHRLPLS
1.0 nM	6 of 6	1 of 18	KYSQSVLYESRNKNSVA	DASTRSS	QQYHRLPLS
30 nM	6 of 6	0 of 18	QIQGKLQHGGNQGDNVA	QGVETKN	QQYYTLPLT
2.1 nM	6 of 6	2 of 18	KVAGMMHQMGTQHQNIA	DMAIKCD	QQYQRLPLH
4.3 nM	6 of 6	0 of 18	KFMQSVLYETRNKQSVA	AASTRES	QQYHRLPLS
1.2 nM	6 of 6	4 of 18	KFSDSVLLESRTDNSVA	NASTRES	QQYHRLPLS
15 nM	6 of 6	0 of 18	KLQQSVLYESRNKNSVA	HASTRED	KQYHRLPLS
6.9 nM	6 of 6	0 of 18	YSLQDVLYESRNKNSVA	HASTRED	QQYHRLPLS

Repeated from above, the 6 best binders with a signal in all replicates:

CDR-L1	CDR-L2	CDR-L3	apparent Kd	replicates with signal	empty controls
ILDQSHLYESRNKNSVA	NANTREE	QQYHRLPLS	380 pM	6 of 6	2 of 18
KSSPSTLYESRNKNSVA	DASTRES	QQYMRLPLS	520 pM	6 of 6	0 of 18
KLEQSQLYESRNKNSVA	QASTRES	QQYHRLPLS	580 pM	6 of 6	2 of 18
KLDQSVLYESRNKNSVA	GASTRCS	QQYHRLPLS	680 pM	6 of 6	0 of 18
KLDPSHLGESRNKNAVA	QASTREE	QQYHRLPLS	880 pM	6 of 6	2 of 18
KLMQEMWYESRNKNSVA	HASEREQ	QQYHRLPLQ	930 pM	6 of 6	1 of 18

Source: Li et al. 2023 (doi:10.1038/s41467-023-39022-2), MIT Lincoln Laboratory and A-Alpha Bio; data file from the FLAb repository.